Source: PubChem BioAssay AID927 (National Center for Advancing Translational Sciences (NCATS), 2007)
The list shows a part of the results, in another mix than the full data. Activity calls are given as the source filed them. The call rests on the fitted dose curve; in most records, active means well fitted inhibition curve with a large enough effect; inconclusive means small, poorly fitted or top-dose-only effect; inactive means no such curve, though single readings can be large or run the other way.

Sequences of proteins named here, by UniProt entry; tags and fusion partners are left off. A change or cut given only in a name is not applied to a line headed by its entry.
UniProt O75604: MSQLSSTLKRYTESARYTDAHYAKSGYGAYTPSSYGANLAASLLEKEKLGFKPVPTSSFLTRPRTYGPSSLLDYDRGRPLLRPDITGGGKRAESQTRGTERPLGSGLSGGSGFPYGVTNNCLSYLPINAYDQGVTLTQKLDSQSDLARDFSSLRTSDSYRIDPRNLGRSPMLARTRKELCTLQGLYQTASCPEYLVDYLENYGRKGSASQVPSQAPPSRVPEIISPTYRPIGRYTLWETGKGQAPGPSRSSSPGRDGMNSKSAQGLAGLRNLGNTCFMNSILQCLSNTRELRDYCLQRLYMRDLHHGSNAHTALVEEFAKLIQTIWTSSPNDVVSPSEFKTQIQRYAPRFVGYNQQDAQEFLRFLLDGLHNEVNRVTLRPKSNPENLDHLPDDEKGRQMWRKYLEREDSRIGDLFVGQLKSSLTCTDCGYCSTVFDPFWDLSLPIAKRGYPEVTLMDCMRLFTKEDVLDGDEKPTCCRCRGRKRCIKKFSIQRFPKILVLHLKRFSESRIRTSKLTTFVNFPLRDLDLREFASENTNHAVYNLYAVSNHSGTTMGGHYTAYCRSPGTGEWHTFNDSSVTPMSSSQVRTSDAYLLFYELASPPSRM

What follows are molecules tested against Ubiquitin carboxyl-terminal hydrolase 2 (Homo sapiens) (UniProt O75604) (assay: qHTS Assay for Inhibitors of Ubiquitin-specific Protease USP2a). Conditions: USP2a enzymatic assay; at 38.3 µM (top of the series) unless noted.
Excerpt: NIH Molecular Libraries Screening Centers Network [MLSCN]
NIH Chemical Genomics Center [NCGC]
PI Name: Nicholson, Ben. Progenra Inc, Malvern, PA
Homeostasis of cellular proteins is maintained through a combination of synthesis and degradation. The pathway that accounts for the majority of protein degradation is the ubiquitin-proteasomal pathway. Ubiquitin (Ub) is highly conserved in all cells and the generation of a multi-Ub chain typically targets proteins for degradation by the proteasome. However, ubiquitination is highly reversible and dynamic. Deubiquitination, the reverse process, is catalyzed through the action of enzymes referred to as isopeptidases or deubiquitinating enzymes (DUBs). This group of enzymes is collectively responsible for maintaining adequate pools of free ubiquitin and regulating the ubiquitination status of cellular proteins. The class of DUBs referred to as the ubiquitin-specific proteases (USP) family functions endoproteolytically to cleave Ub chains from a wide range of protein substrates. USP2a deubiquitinates fatty acid synthase (FASN) which has recently been identified as an emerging oncology target. To identify inhibitors of USP2a a cell-free assay was employed.
The reporter enzyme chosen is phospholipase A2 (PLA2), which has an absolute requirement for a free amino terminus. Thus, fusion of a UBL to the N-terminus of PLA2 inactivates PLA2. When the UBL-PLA2 reporter enzyme is cleaved by USP2, the activated reporter can subsequently act on its substrate, which is the commercially available NBD C6-HPC (Invitrogen). Thus, this coupled assay gives a fluorescent read-out, which is generated through the cleavage of the PLA2 reporter enzyme. The assay, developed by Progenra, Inc. uses Ub-PLA2 and USP2a at near equal and low (nM) amounts and has been licensed for sale by LifeSensors, Inc. as the Ub-IsoPro1 kit.
NCGC Assay Protocol Summary:
The assay buffer, prepared fresh at the day of the assay, contains 20mM Tris-HCl pH 8.0, 2mM CaCl2, 2mM beta-Mercaptoethanol, 0.1% DMSO. 3ul of 40nM (20nM final) USP2 core, which is stored on ice, is dispensed into a medium-binding black solid Kalypsys 1,536 well plate using the Kalypsys dispenser. The assay plate is then pinned with 23nL compound with the Kalypsys pintool in columns 5-48. The controls are pinned as follows: column 1&2 two-fold dilutions of 2M NEM in duplicate; column 3 DMSO; column 4 2M NEM (final concentration 38.2mM). The assay plate is incubated at RT for 30min. Subsequently, 3uL of 40nM (20nM final) Ub-PLA2 and 40uM (20uM final) NBD C6-HPC (stored on ice and protected from light) were dispensed into the plate using the Kalypsys dispenser. Plates were read immediately (0 Hour) on an Envision (Perkin Elmer) plate reader using the following wavelengths Ex 460nm /Em 535nm. Then, the assay plates were incubated for 2.5 hours and read again on the Envision using the same settings
Data were normalized to the to AC100 inhibition (NEM). Concentration-response curves were fitted to the normalized data and the concentration-response curves were then classified based on curve quality (r2), response magnitude and degree of measured activity. The time zero reading was used to flag fluorescence artifacts.
Keywords: ubiquitination, deubiquitination, proteases, profluorescent, MLSMR, MLSCN, NIH Roadmap, qHTS, NCGC
Further: nearly all actives have a fitted effect of over 60% in size.

Compound | activity change, negative = inhibition
O=P(Nc1nccs1)(c1ccccc1)c1ccccc1 | inactive: -0.752%
c1nnnn1CCn1cnnn1 | inactive: -2.51%
O=C(OC1CN2CCC1CC2)c1cccc(Cl)c1 (stereo not drawn) | inactive: 0.412%
COC(=O)c1cc2c(s1)N=C(c1ccccc1)N(C)P2(=O)N1CCOCC1 (stereo not drawn) | inactive: -6.11%
O=P1(Nc2nc3ccc(Cl)cc3s2)COc2ccccc2O1 (stereo not drawn) | inactive: -0.25%
Cc1c2non([O-])c-2c(C)[n+](=O)[n+]1[O-] | inactive: -10.5%
CN(C(=O)Cc1ccccc1)[C@@H]1CC[C@@]2(CCCO2)C[C@H]1N1CCCC1 | inactive: -11.9%
CCc1nc2c(n1)c1c(non1O)c1c2no[n+]1[O-] | inactive: -0.284%
COP1(=S)c2c(C)nn(CCC#N)c2N=C(c2ccc(F)cc2)N1C (stereo not drawn) | inactive: -2.28%
O=C(COc1ccccc1)OC1CN2CCC1CC2 (stereo not drawn) | inactive: -2.48%
O=C(OC1CN2CCC1CC2)C12CC3CC(CC(C3)C1)C2 (stereo not drawn) | inactive: -0.564%
CN(C(=O)Cc1ccc(Cl)c(Cl)c1)[C@@H]1CC[C@@]2(CCCO2)C[C@H]1N1CCCC1 | inactive: 5.85%
NC(=O)Nc1ccc([As](=O)(O)O)cc1 | inactive: -7.97% [at 17.1 µM]
CCOP1(=S)c2c(C)nn(CCC#N)c2N=C(c2ccc(F)cc2)N1C (stereo not drawn) | inactive: -6.83%
O=P(Nc1nccs1)(c1ccccc1)c1nc2ccccc2s1 (stereo not drawn) | inactive: -7.62%
CCOP1(=S)c2c(C)nn(CCC#N)c2N=C(c2ccccc2F)N1C (stereo not drawn) | inactive: 1.74%
O=P1(Nc2ncccn2)COc2ccccc2OC1 | inactive: -4.25%
O=P1(Nc2ccc(Br)cn2)COc2ccccc2OC1 | inactive: 0.395%
Cc1nn(-c2ccccc2)c2c1P(=O)(N1CCOCC1)N(C)C(c1ccccc1)=N2 (stereo not drawn) | inactive: -0.979%
CN(C(=O)Cc1ccc(Cl)c(Cl)c1)[C@@H]1CCCC[C@H]1N1CCCC1 | inactive: 3.29% [middle of 4 runs]
CN(CCCl)Cc1cc(Cl)c(NC2=NCCN2)c(Cl)c1 | inactive: -7.7%
O=P1(Nc2ccccn2)COc2ccccc2OC1 | inactive: -8.33%
Clc1n[nH]nc1-c1nn[nH][15n]1 | inactive: -1.32%
